Earlier results, collected in patent US5808139A (Ligand Pharmaceuticals Incorporated, priority 1994, dated 1998).

Target: T1, human progesterone receptor (Homo sapiens, UniProt P06401)
T1 sequence (P06401 1-933): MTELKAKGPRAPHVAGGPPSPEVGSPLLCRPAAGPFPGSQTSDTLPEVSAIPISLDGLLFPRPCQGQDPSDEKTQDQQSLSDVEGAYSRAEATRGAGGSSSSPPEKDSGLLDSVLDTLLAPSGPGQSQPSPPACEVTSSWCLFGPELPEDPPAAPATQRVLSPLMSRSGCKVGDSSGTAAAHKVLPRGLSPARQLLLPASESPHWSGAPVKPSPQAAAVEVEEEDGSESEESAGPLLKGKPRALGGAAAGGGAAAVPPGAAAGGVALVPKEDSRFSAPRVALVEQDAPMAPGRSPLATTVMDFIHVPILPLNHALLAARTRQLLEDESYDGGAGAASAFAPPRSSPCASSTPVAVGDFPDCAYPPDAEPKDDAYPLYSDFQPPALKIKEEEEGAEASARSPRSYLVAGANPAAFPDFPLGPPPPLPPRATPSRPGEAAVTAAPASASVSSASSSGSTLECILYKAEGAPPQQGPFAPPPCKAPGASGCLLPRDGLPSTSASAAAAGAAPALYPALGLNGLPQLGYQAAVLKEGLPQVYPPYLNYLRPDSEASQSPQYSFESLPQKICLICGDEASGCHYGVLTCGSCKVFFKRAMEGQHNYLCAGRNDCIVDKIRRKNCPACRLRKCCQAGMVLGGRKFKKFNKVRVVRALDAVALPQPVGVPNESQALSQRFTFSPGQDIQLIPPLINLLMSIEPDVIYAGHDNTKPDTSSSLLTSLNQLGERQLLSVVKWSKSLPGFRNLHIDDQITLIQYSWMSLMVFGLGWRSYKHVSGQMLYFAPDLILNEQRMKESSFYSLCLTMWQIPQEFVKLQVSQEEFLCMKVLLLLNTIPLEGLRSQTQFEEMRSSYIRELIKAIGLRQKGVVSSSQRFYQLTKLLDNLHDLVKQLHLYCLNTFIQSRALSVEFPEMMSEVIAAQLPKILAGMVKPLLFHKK
Set-up: expressed in transfected cells; host or cells: CV-1 cells (calcium phosphate transfection), whole cell extract
Conditions: general statement on antagonists; cited from earlier work

CC#C[C@]1(O)CC[C@H]2[C@@H]3CCC4=CC(=O)CCC4=C3[C@@H](c3ccc(N(C)C)cc3)C[C@@]21C [RU-486, reference compound]
Specific binding of progesterone to its ligand binding site: can increase the specific binding of progesterone
